The test has as its target T1, Tyrosine-protein phosphatase non-receptor type 1 (Homo sapiens, UniProt P18031).
T1 sequence (P18031 whole entry): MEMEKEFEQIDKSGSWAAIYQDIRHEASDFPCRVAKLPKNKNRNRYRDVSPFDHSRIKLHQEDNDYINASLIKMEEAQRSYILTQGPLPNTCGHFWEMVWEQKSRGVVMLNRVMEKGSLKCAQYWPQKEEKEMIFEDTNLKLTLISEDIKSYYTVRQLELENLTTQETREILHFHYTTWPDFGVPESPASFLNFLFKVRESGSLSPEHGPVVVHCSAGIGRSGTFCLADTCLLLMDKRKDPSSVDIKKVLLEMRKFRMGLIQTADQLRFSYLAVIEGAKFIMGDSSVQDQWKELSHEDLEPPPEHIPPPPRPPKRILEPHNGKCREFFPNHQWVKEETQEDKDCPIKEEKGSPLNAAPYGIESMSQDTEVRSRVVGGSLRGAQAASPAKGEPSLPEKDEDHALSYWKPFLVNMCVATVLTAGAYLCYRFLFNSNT
The experiment in a line: Inhibition of PTP1B (unknown origin) using p-NPP as substrate measured every 30 secs for 15 mins.

pIC50: −log10 of the molar value.

In turn, `CCc1cc(C[C@H](NC(C)=O)C(=O)NCCCCOc2cccc(O)c2C(=O)OC)ccc1N(C(=O)C(=O)O)c1ccccc1C(=O)O` gave a pIC50 of 7.74.

Usually pIC50 stands for the negative decadic logarithm of the IC50, by convention in mol/L. The low end stands for a large IC50, the high end for a small IC50.

For the origin of these results see ChEMBL document CHEMBL4020710, “Discovery and evaluation of the hybrid of bromophenol and saccharide as potent and selective protein tyrosine phosphatase 1B inhibitors” (Eur J Med Chem, 2017).
